In this experiment the target is T1, NHE1 (Homo sapiens, UniProt P19634).
T1 construct: MDA-MB-231 cells were seeded into Greiner CELLSTAR black 96-well plates; endogenous in cells; host or cells: MDA-MB-231
The experiment is described as follows: Plate-based NHE1 inhibition assay (BCECF pHi recovery, 96-well plate reader). The experiment is classed as cell-based.

Sequences of proteins named here, by UniProt entry; tags and fusion partners are left off.
UniProt P19634, whole entry: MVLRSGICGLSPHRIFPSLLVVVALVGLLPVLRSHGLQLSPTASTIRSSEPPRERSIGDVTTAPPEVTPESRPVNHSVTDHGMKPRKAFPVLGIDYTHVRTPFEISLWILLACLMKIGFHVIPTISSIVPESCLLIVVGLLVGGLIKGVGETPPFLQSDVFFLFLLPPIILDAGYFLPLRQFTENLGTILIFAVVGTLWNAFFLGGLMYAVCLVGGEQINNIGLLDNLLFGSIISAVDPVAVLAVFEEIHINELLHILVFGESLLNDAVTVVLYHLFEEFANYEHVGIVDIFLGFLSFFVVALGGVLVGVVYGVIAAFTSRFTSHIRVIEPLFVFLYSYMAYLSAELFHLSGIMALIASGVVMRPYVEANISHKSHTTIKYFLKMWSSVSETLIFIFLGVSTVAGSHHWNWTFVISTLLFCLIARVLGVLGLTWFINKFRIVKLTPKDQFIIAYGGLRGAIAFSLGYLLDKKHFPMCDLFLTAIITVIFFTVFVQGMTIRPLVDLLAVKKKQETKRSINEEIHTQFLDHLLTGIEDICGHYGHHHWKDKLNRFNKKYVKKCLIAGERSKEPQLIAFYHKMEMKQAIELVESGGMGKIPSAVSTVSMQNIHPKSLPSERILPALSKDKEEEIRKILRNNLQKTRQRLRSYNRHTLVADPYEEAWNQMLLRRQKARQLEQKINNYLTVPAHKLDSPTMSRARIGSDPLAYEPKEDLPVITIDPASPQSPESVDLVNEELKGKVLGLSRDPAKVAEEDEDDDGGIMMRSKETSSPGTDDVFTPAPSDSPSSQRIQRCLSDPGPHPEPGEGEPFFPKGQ

In the case of `N=C(N)NC(=O)c1nc(-c2cc3ccccc3o2)c(N)nc1N` [compound 4], under “MDA-MB-231, read-out: NHE1 Inhibition (%) 1 μM”, the inhibition (commonly the share of the control response that was lost under treatment) at 1 µM came out at 13%. Moreover, the inhibition at 10 µM (MDA-MB-231, read-out: NHE1 Inhibition (%) 10 μM) came out at 96%.

(Values after PMC8000185 (International Journal of Molecular Sciences, 2021).)
